# Screening results: PubChem BioAssay, National Center for Advancing Translational Sciences (NCATS)
# The list is not random: actives were taken first. Their share in the collection is about 3.7%.
# Nrf2 activator = Nrf2 pathway activation; AREc32 ARE-luciferase reporter (MCF7-derived line), luminescence, 24 h; Potency, µM (series often up to 46.1 µM), without a hit: at the top dose activation, most hits filed as activators; 410,000 tested, 0.31% active; AID 624171; further: potency means the concentration at half of the fitted maximal effect; % of control where 0% means no effect; nearly all actives have a fitted effect of over 65% in size
#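 AREc32 cells carrying an ARE-driven firefly luciferase, 1000 cells/well in OPTI-MEM with 5% FBS, dosed after overnight attachment and incubated 24 hr at 37 deg C. Steady-Glo luminescence read after 30 min at RT.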
# TCR act = activators of T cell receptors; primary human leukocytes, anti-CD3, IL-2 HTRF, 48 h; Potency, µM (highest dose often 9.22 µM), without a hit: top-dose activation of IL-2 secretion, usual class: activators; 330,000 tested, under 10 active; further: % of control where 0% means no effect
#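 TCR engagement came from a-CD3 beads alone, with compounds added to primary human leukocytes for 48 hr. Secreted IL-2 bridged europium cryptate- and d2-labelled anti-IL-2 antibodies, giving FRET emission at 665nm after 320nm excitation.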
# A549 viability = kills or reduces viability of A549 cells in Nrf2 counter-screen; A549 ARE-Fluc cells, CellTiter-Fluor viability, 18-24 h; Potency, µM (highest dose often 46 µM), without a hit: at the top dose activity change, negative = cytotoxicity, actives largely listed as inhibitors; 390,000 tested, 0.16% active; further: potency means the concentration at half of the fitted maximal effect; on the % scale 0 is the no-effect control and ±100 the full control effect
#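 A549 ARE-Fluc cells in 5% FBS OPTI-MEM, 5000 cells/well, rested 2 h then exposed to compounds in concentration-response for 18-24 h at 37 °C. Viability by CellTiter-Fluor fluorescence (Ex 405/Em 525) after 30 min; luciferase luminescence (BugLite, 15 min, RT) read afterwards.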
# Nrf2 block = Nrf2 pathway inhibition | A549 ARE-Fluc reporter, luciferase luminescence, 18-24 h | Potency, µM (top dose mostly 46 µM), without a hit: top-dose activity change, negative = inhibition, actives largely listed as inhibitors | 360,000 tested, 2.1% active | AID 504444; further: potency means the concentration at half of the fitted maximal effect; on the % scale 0 is the no-effect control and ±100 the full control effect; nearly all actives have a fitted effect of over 60% in size
#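 Cells were seeded and rested 2 h, then exposed to compounds for 18-24 h. CellTiter-Fluor was read first as a viability measure. BugLite was added 15 min before the final luminescent read of ARE-luciferase activity in A549 cells.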
# ClpP mod = qHTS Assay for Activators of ClpP; ATP-dependent Clp protease proteolytic subunit (Bacillus subtilis (strain 168)), P80244; purified B. subtilis ClpP, FRET peptide cleavage, 20 min; Potency, µM (titrated, usually from 57.5 µM), for inactives: at the highest dose activity change, negative = active; 340,000 tested, 1.9% active; AID 651965, 2013; active means well fitted falling curve with a large enough effect; inconclusive means small, poorly fitted or top-dose-only effect; inactive means no such curve, though single readings can be large or run the other way; further: potency means the concentration at half of the fitted maximal effect; the source files actives as falling curves though it sought activators and does not explain the sign; nearly all actives have a fitted effect of over 65% in size
#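 FRET quenching reversal measured ClpP activation: 10 microg/mL B. subtilis ClpP at pH 8 with the FRET-FV decapeptide, read at 430 nm after 320 nm excitation. The 20-min minus 0-min signal was scaled between DMSO/no-enzyme wells and ADEP (5.8 microM final).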
# miR-21 reporter = raises the signal of a miR-21 reporter | Potency, µM (doses to about 38.3 µM), for inactives: top-dose reporter change, positive = more light | HeLa miR-21 FLuc reporter, luciferase, 48 h | AID 2288 | 340,000 tested, under 10 active; active = well fitted rising curve with a large enough effect; inconclusive = small, poorly fitted or top-dose-only effect; inactive = no such curve, though single readings can be large or run the other way;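 also: % of control where 0% means no effect; miR-21 action dims this reporter so a rising signal means less miR-21 action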
#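 HeLa cells endogenously expressing miR-21, stably carrying CMV-driven firefly luciferase with a downstream miR-21 binding site, 2000 cells/well. Titrations up to approximately 40 uM, 48 hours; luciferase luminescence read.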
# * = called active by the depositor; ? = inconclusive; . = no result given; [ ] = another dose, or the depositor's remark. Unless noted, the call rests on the fitted dose curve; in most records, active means well fitted curve in the direction sought with a large enough effect; inconclusive means small, poorly fitted or top-dose-only effect, or another doubt; inactive means no such curve, though single readings can be large; an effect the other way counts as inactive or inconclusive.
1: Cc1ccccc1-n1nc(C)c2cc(C(=O)NCc3cccnc3)sc21
2: COc1ccc(NC(=O)c2cccs2)cn1
3: CC(C)(C)c1ccc(Oc2ccc(NC(=O)c3cccs3)cn2)cc1
4: Cc1cc(/C=C2\C=Cc3ccccc32)cc(C)c1[N+](=O)[O-]
5: Cc1ccc(C(=O)Cn2c3[n+](c4ccccc42)CC(O)CS3)cc1 (configuration not stated)
screen / no. | 1 | 2 | 3 | 4 | 5
Nrf2 activator | 0.2% | 3.5% | -0.9% | . | -0.4%
TCR act | 1.0% | -3.7% | -0.1% | . | 2.8%
A549 viability | 4.5% | 0.5% | -16.7% | . | -8.1%
Nrf2 block | -28.4% | ? | 16.4µM* | . | -1.2%
ClpP mod | 28.2µM* | . | 0.3% | -2.0% | 0.1%
miR-21 reporter | 10.9% | -36.0% | ? | . | -1.0%

6: O=C(Cn1c2[n+](c3ccccc31)CC(O)CS2)c1ccccc1 (configuration not stated)
7: COc1ccccc1NC(=O)C(=O)N1N=C(C(C)C)CC1(O)C(F)(F)F (configuration not stated)
8: N#Cc1ccc(-c2ccc(OCC(=O)NCCc3ccccc3)cc2)cc1
9: O=S(=O)(NC1CCCCC1N1CCC(O)CC1)c1ccccc1 (configuration not stated)
10: c1coc(CNc2ncnc3sc4c(c23)CCCCC4)c1
screen / no. | 6 | 7 | 8 | 9 | 10
Nrf2 activator | 0.3% | -0.9% | 2.1% | 0.3% | 10.8%
TCR act | 0.2% | . | -0.9%[46.1 µM] | 3.4% | -6.4%
A549 viability | -4.3% | -21.3% | -2.3% | 1.7% | -0.7%
Nrf2 block | -13.8% | 23.1µM* | -5.0% | 2.2% | -10.0%
ClpP mod | 3.16µM* | -1.2% | 31.6µM* | ? | -0.6%
miR-21 reporter | 0.8% | 6.9% | -0.1% | -5.4% | -28.0%

# Exported with two lines to a compound: entries from further up.
# Results follow in this order: Nrf2 activator, TCR act, A549 viability, Nrf2 block, ClpP mod, miR-21 reporter
[6] O=C(Cn1c2[n+](c3ccccc31)CC(O)CS2)c1ccccc1 (configuration not stated)
  0.3%, 0.2%, -4.3%, -13.8%, 3.16µM*, 0.8%
[7] COc1ccccc1NC(=O)C(=O)N1N=C(C(C)C)CC1(O)C(F)(F)F (configuration not stated)
  -0.9%, ., -21.3%, 23.1µM*, -1.2%, 6.9%
[8] N#Cc1ccc(-c2ccc(OCC(=O)NCCc3ccccc3)cc2)cc1
  2.1%, -0.9%[46.1 µM], -2.3%, -5.0%, 31.6µM*, -0.1%

# More entries.
11: CCN1CCc2c(sc3c2c(NCc2ccco2)nc2nnnn23)C1
12: O=C(NCc1ccncc1)c1cccc(S(=O)(=O)Nc2ccc(SC(F)F)cc2)c1
13: O=C(NCc1ccccn1)c1cccc(S(=O)(=O)Nc2ccc(SC(F)F)cc2)c1
14: Cc1cccn2c(=O)c3cc(C(=O)NCCc4ccc(S(N)(=O)=O)cc4)n(C)c3nc12
15: Cc1cccn2c(=O)c3cc(C(=O)O)n(C)c3nc12
screen / no. | 11 | 12 | 13 | 14 | 15
Nrf2 activator | 19.6% | -0.2% | 0.2% | 0.1% | 2.3%
TCR act | . | -3.3% | 8.3% | . | -2.5%[46.1 µM]
A549 viability | 1.9% | -20.8% | -4.5% | 3.2% | ?
Nrf2 block | ? | 14.6µM* | -28.0% | 0.9% | -2.7%
ClpP mod | 12.6µM* | 1.2% | 0.7% | ? | 31.6µM*
miR-21 reporter | -19.7% | . | . | 5.5% | -4.8%

16: Cc1cc(C)nc(NS(=O)(=O)c2ccc(NC(=O)c3cc4c(=O)n5cccc(C)c5nc4n3C)cc2)n1
17: COc1cc(OC)cc(C(=O)NCC(=O)OCC(=O)Nc2ccc(C)c(S(=O)(=O)N3CCOCC3)c2)c1
18: Cc1cc(C)cc(CC(=O)N2CCC2(C)C(=O)NS(=O)(=O)c2ccccc2Cl)c1 (configuration not stated)
19: c1csc(-c2ncc3ccccn23)c1
20: COc1cc(OC)cc(-c2ncc3ccccn23)c1
screen / no. | 16 | 17 | 18 | 19 | 20
Nrf2 activator | 0.1% | 0.2% | -0.1% | 6.8% | 0.2%
TCR act | 0.3% | -25.9% | . | -1.2% | 1.1%[46.1 µM]
A549 viability | -13.0% | 1.8% | . | -6.5% | -11.3%
Nrf2 block | 23.1µM* | -5.5% | . | . | -5.4%
ClpP mod | 3.6% | -6.3% | 0.6% | 31.6µM* | 25.1µM*
miR-21 reporter | -18.9% | . | . | -32.2% | -5.0%

21: Fc1ccc(-c2ncc3ccccn23)cc1
22: CC1(c2ccc(Cl)cc2)NC(=O)N(CC(=O)N2CCc3ccccc32)C1=O (configuration not stated)
23: Cn1cnc(S(=O)(=O)N2CCC(C(=O)Nc3ccc(Cl)c(C(F)(F)F)c3)CC2)c1
24: O=C1OCc2cc(NC(=O)C3CCCO3)ccc21 (configuration not stated)
25: O=C(NCCN1CCOCC1)c1ccc(S(=O)(=O)Nc2ccccc2)cc1
screen / no. | 21 | 22 | 23 | 24 | 25
Nrf2 activator | 3.4% | 0.8% | -1.2% | 2.1% | -2.5%
TCR act | -2.1% | -5.6% | . | -2.8% | -6.4%
A549 viability | 5.9% | 1.1% | -15.4% | 8.4% | 0.8%
Nrf2 block | 12.7% | -9.1% | . | -6.4% | -11.0%
ClpP mod | -8.9% | -0.7% | 1.8% | -5.9% | 0.3%
miR-21 reporter | -33.3% | . | 16.3% | -6.7% | .
